Reference: publication PMC10907494, “Applications of biaryl cyclization in the synthesis of cyclic enkephalin analogs with a highly restricted flexibility” (Amino Acids, 2024)

The chains behind the UniProt entries cited, without tags or fusion partners.
UniProt P33535, whole entry: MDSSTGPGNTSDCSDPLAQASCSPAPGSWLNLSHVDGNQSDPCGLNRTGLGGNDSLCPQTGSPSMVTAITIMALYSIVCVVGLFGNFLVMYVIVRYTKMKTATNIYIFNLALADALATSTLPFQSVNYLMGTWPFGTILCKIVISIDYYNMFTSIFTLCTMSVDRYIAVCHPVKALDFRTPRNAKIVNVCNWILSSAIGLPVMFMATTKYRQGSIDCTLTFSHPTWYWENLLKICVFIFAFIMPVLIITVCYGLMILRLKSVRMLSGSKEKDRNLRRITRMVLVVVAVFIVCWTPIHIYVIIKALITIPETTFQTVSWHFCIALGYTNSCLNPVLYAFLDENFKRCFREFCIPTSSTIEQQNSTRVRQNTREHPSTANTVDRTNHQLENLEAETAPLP

Target: μ-opioid receptor (MOR) (Rattus norvegicus, UniProt P33535)
Assay: biochemical
Protocol: The binding affinity of cyclic and linear enkephalin analogs for μ-opioid receptor (MOR) was determined in competitive radioligand binding assays using membrane preparations from rat brain homogenates. The homogenates were obtained as described previously (Matalińska et al. [2020]). The membrane preparations were incubated at 25 °C for 60 min in the presence of 1.0 nM [^3H]DAMGO (obtained from PerkinElmer, USA) and the set of concentrations of the assayed compound proper for a particular compound and type of determination (screening or a full-displacement curve).
For screening purposes, we performed the experiments with the following concentrations of the compounds tested: 30 μM, 10 μM, and 3 μM. For full-displacement curves, 10 concentrations ranging either from 0.03 nM to 1 μM or from 300 nM to 30 μM were used. The range was chosen for the single compounds in a manner such that the expected IC50 would fall in the middle of the range. In the case of several experiments, only five concentrations were used (they are marked in the results table).
Non-specific binding was measured in the presence of 10 μM naloxone. […] Radioactivity was measured in a scintillation counter MicroBeta LS, Trilux (PerkinElmer, USA). Displacement curves were drawn and the mean IC50 values were determined with SEMs (GraphPad Prism v. 5.0, San Diego, CA).

## CC(C)C[C@H](NC(=O)[C@H](Cc1ccccc1)NC(=O)CNC(=O)CNC(=O)[C@@H](N)Cc1ccc(O)cc1)C(N)=O [[Leu^5]enk-NH2, H-Tyr-Gly-Gly-Phe-Leu-NH2, reference compound]
  IC50: 6.1 ± 1.4 nM
